Measured values taken from ChEMBL document CHEMBL1124280, “Synthesis and biological evaluation of isomeric dinucleoside monophosphates and monomethylphosphonates of 9-beta-D-arabinofuranosyladenine and related analogues” (1988).

Each molecule was assayed on Vero (assay: Minimum cytotoxic concentration in vero cells of African green monkey kidney). Details: Chlorocebus sabaeus.

CP(=O)(OC[C@H]1OC(n2cnc3c(N)ncnc32)[C@@H](O)[C@@H]1O)O[C@H]1[C@H](O)C(n2cnc3c(N)ncnc32)O[C@@H]1O (stereo partly drawn) and CP(=O)(OC[C@H]1OC(n2cnc3c(N)ncnc32)[C@@H](O)[C@@H]1O)OC[C@H]1OC(n2cnc3c(N)ncnc32)[C@@H](O)[C@@H]1O (stereo partly drawn) cannot be ordered by MCC: greater than 100 µg/mL for the first, greater than 400 µg/mL for the second.

Molecule CP(=O)(O[C@@H]1C(O)O[C@H](n2cnc3c(N)ncnc32)[C@H]1O)O[C@H]1C(O)O[C@@H](n2cnc3c(N)ncnc32)[C@@H]1O (stereo partly drawn) has an MCC greater than 400 µg/mL.
